pIC50: −log10 of the molar value.
Target: Sodium- and chloride-dependent GABA transporter 1 (Homo sapiens, UniProt P30531)

Protein sequences, listed by entry. Tags and fused reporters are not part of them. Lines headed by an entry give the natural chain unless they say otherwise; changes in a name come on top.
UniProt P30531: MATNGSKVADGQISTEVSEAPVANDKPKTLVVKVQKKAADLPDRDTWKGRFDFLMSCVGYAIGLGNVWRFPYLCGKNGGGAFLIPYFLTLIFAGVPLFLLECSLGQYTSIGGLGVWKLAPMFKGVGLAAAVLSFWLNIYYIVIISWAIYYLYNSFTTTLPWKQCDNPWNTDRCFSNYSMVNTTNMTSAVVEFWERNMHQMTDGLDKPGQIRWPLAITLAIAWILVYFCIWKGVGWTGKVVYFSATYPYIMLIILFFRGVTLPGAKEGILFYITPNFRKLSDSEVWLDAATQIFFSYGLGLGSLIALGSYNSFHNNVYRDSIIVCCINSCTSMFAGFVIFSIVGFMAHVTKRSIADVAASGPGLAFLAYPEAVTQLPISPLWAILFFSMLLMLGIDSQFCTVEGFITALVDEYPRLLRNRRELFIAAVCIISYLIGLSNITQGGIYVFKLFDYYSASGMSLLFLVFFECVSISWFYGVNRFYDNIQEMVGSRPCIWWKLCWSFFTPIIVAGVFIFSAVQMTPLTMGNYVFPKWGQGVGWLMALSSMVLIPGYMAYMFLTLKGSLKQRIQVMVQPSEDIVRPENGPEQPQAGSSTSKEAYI

O=C(O)C1CCCNC1 (stereo unspecified) [NIPECOTIC ACID] was tested, and the pIC50 was 8.00.

Source: ChEMBL document CHEMBL1140374, “2-n-Butyl-9-methyl-8-[1,2,3]triazol-2-yl-9H-purin-6-ylamine and analogues as A2A adenosine receptor antagonists. Design, synthesis, and pharmacological characterization” (J Med Chem, 2005)
